{
  "source": "patent US20110045568A1",
  "about": "“METHOD FOR RESTORING BMP-RECEPTOR SIGNALING IN A CELL” (FREIE UNIVERSITÄT BERLIN, priority 2008, published 2011)",
  "assay_type_in_all_cases": "cell-based, mouse",
  "key": {"cGKI [1]": {"system": "cGKI", "experiment": "BMP-2 target gene assay (RT-PCR), cGKI mRNA in C2C12 cells", "details": "four hours of stimulation with BMP-2", "experimental": "(§1) FIG. 7. cGMP/cGKI pathway stimulates BMP-2 signaling via Smad1/5 (A and B) C2C12 cells were co-transfected with pBRE-luc, pRL-TK and cGKI variants and stimulated with BMP-2 or left untreated. Luciferase activity was measured and error bars result from the mean of duplicate measurements. […] Expression of cGKIα/β was controlled by immunoblot using α-cGKI antibody. (C) As in (A and B) except that reporters were co-transfected with sh-cGKI, sh-cGKI mix and sh-control into C2C12 cells. BRE driven luciferase activity was measured and error bars represent deviation of the mean of duplicate measurements. […] (D) C2C12 cells were transfected with BRE-luc and pRL-TK and stimulated with BMP-2 and/or 8-Br-cGMP. Luciferase activities are represented as mean of each value and standard deviations result from duplicate measurements. […] The mRNA amount of Id1 was analyzed using Id1 specific primers including the control of applied cDNA by PCR using β-actin specific primers. […] BRE driven luciferase activity was measured, standard deviations result from duplicate measurements. […] Lysates were pooled and immunoblotted for expression of cGKIα and TFII-I. (G) As in (E) except that mRNA amount of cGKI was analyzed using cGKI specific primers. […] Results were quantified using ImageJ. cGKI mRNA expression was normalized relative to β-actin. […] The PDGF- or serum-induced proliferation was measured. […]"}, "Id1": {"system": "Id1", "experiment": "BMP-2 target gene assay (RT-PCR), Id1 mRNA in C2C12 cells", "details": "20 nmol/l BMP-2 and/or 1 μmol/l 8-Br-cGMP, 4 hrs", "experimental": "as §1"}, "cGKI [2]": {"system": "cGKI", "experiment": "Immunofluorescence microscopy of cGKI localization in C2C12 cells", "details": "stimulation for 30 min", "experimental": "FIG. 3. cGKI detaches from the receptor complex and undergoes nuclear translocation upon BMP-2 stimulation (A and B) 293T cells were co-transfected with cGKIβ and HA-tagged BRII-SF (A) or HA-BRII-LF (B). Cells were stimulated with BMP-2 from 5 to 60 min. cGKIβ was immunoprecipitated from cell lysates followed by immunoblot using α-HA antibody. Protein expression was controlled by immunoblotting with α-cGKI and α-HA antibodies. These experiments are exemplarily (n>3). Results for cGKIβ/BRII-SF were quantified using ImageJ and error bars represent deviation of the mean of two experiments. (C) Immunofluorescence staining of cGKI in C2C12 cells after stimulation with BMP-2 or 8-Br-cGMP. DNA was stained using Hoechst dye.\nFor co-localization studies, C2C12 cells stably expressing N-terminally HA-tagged BRII-SF or BRII-LF were stained as described in (Gilboa et al., 2000). Analysis was done with 63-fold magnification at a Leica DMR (Leica) confocal microscope. To examine the protein localization C2C12 cells or transfected 293T cells were starved for 3 hrs and either stimulated with 10 or 20 nmol/l BMP-2 and/or 1 mmol/18-Br-cGMP for 30 min or for 5 to 60 min or left untreated. Indirect immunofluorescence was performed as described in (Bengtsson and Wilson, 2006). Cells were analyzed using fluorescence microscopy (63-fold magnification, Axiovert 200M, Zeiss)."}, "[3]": {"system": "BMP response element (BRE from Id1 promoter) luciferase reporter", "experiment": "BRE luciferase reporter gene assay in C2C12 cells", "details": "endogenous cGKI, 1 nmol/l BMP-2 and/or 1 μmol/l or 100 μmol/l 8-Br-cGMP, 24 hrs", "experimental": "as §1"}, "Id1 promoter": {"system": "Id1 promoter", "experiment": "Chromatin immunoprecipitation (ChIP) at the Id1 promoter in C2C12 cells", "details": "BMP-2 stimulation 4 hrs, versus unstimulated cells", "experimental": "FIG. 6. cGKI, Smad1 and TFII-I co-localize at the Id1 promoter after stimulation with BMP-2 (A, B and C) C2C12 cells were stimulated with BMP-2 and/or 8-Br-cGMP or left unstimulated (−). Chromatin immunoprecipitation (ChIP) was performed using (A) α-cGKI or α-Smad1 antibody or (B) α-Smad1 followed by α-cGKI antibody and vice versa or (C) α-Smad1 followed by α-TFII-I antibody and vice versa. Subsequent PCR identified a co-precipitated Id1 promoter sequence using specific primers. The applied amount of DNA for ChIP is shown in lane 1. To exclude unspecific outcome control samples were run (for ChIP: no antibody, IgG, α-GFP antibody; for two-step ChIP: α-respective antibody followed by IgG; for unspecific amplification via PCR: no template). […] C2C12 cells were stimulated with BMP-2 for 4 h or left unstimulated. Endogenous chromatin immunoprecipitations (ChIP) of a specific Id1 promoter fragment was performed using α-Smad1 and α-cGKI antibodies (left). […] (D) Endogenous complexes with cGKI from C2C12 cells were analyzed with α-TFII-I, α-Smad1 and α-Smad4 antibodies and a lysate aliquot was monitored for protein expression. (E) Smad1/TFII-I association was analyzed in 293T cells expressing both proteins. […]\nChIP was performed as described previously (Weiske and Huber, 2006) with minor modifications. […] PCR products were separated on 8% PA gels and analyzed under UV light."}},
  "data": [
    {"substance": "BMP-2: Bone Morphogenetic Protein 2, BMP-receptor ligand used for stimulation", "values": [
      {"measurement": "upregulation of cGKI mRNA (factor)", "setting": "cGKI [1]", "result": 2},
      {"measurement": "induction of Id1 mRNA", "setting": "Id1", "result": "more than 2 fold"},
      {"measurement": "nuclear translocation of endogenous cGKI", "setting": "cGKI [2]", "result": "induced nuclear translocation"},
      {"measurement": "BRE reporter gene activity upon stimulation", "setting": "[3]", "result": "strongly induced"},
      {"measurement": "association of Smad1 and cGKI with the Id1 promoter", "setting": "Id1 promoter", "result": 5, "unit": "fold"}
    ]}
  ]
}
